# Reference: PubChem BioAssay AID588354 (The Scripps Research Institute Molecular Screening Center, 2011)
# Protein sequences, listed by entry. Tags and fused reporters are not part of them.
# UniProt Q15788, whole entry: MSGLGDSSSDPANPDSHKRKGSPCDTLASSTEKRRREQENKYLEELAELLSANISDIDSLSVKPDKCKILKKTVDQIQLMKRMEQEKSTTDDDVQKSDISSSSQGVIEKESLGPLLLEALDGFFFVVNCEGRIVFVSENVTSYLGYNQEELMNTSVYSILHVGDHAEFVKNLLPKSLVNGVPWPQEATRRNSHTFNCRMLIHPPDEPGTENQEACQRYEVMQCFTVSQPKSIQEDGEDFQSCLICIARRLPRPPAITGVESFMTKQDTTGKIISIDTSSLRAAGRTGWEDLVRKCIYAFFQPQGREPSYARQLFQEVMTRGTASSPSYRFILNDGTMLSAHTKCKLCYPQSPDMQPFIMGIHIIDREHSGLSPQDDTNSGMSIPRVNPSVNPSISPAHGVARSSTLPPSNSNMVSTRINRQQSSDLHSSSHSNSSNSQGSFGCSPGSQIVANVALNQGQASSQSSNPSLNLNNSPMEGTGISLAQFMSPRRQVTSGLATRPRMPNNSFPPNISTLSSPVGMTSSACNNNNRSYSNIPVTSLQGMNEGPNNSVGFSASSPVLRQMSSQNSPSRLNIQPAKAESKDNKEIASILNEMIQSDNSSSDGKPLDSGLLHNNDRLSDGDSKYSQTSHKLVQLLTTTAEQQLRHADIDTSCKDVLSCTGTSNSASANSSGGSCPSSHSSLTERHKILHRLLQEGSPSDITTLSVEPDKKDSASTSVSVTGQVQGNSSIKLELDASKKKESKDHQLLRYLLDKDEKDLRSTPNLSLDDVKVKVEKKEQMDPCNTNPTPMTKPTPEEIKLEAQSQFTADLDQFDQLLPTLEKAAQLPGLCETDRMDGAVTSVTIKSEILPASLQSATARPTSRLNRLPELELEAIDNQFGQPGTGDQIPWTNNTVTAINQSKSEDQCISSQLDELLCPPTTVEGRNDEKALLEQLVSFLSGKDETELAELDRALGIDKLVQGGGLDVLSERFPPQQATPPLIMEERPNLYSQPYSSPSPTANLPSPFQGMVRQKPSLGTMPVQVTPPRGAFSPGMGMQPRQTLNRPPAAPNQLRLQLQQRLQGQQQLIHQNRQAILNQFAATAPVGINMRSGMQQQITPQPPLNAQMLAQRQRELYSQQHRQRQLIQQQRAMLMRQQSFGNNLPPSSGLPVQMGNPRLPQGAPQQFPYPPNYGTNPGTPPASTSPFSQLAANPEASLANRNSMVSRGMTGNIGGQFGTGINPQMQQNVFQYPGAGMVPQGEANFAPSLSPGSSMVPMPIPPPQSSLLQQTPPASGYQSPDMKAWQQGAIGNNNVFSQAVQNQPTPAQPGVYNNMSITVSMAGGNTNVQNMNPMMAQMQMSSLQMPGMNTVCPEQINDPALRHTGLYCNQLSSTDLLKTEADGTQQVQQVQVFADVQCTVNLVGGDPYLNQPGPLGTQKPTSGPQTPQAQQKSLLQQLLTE
# This is a selection; strong and weak results do not stand in their true shares. Active and inactive are the calls of the source.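 Rule for the calls: active = inhibition above the campaign mean plus 3 SD, with each screening campaign given its own cutoff (cut at about 60% in these data); inactive = the rest.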
# Biological target: Nuclear receptor coactivator 1 (Homo sapiens) (UniProt Q15788)
# Experiment: NCOA1 GAL4-fusion reporter inhibition – cell-based, luminescence, primary screen (AID 588354);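 note: 0% = DMSO treated cells and 100% = gossypol at 36 µM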
# Conditions: HEK293 GAL4-SRC1 luciferase reporter, at 3.6 µM, hits give high values
row,Structure (SMILES),inhibition
1,O=c1[nH]c2ccccc2n1C1CCN(C(c2cccc3ccccc23)c2nnnn2C2CCCC2)CC1 (configuration not stated),inactive: 15.7%
2,COc1cc(C(=O)NCC2(N(C)C)CCCCC2)ccc1OC(F)F,inactive: 3.04%
3,CCOC(=O)N1CCC(Nc2cccc(C)c2)CC1,inactive: 1.97%
4,O=c1[nH]c2ccccc2n1C1CCN(C(c2ccccc2)c2nnnn2C2CCCCC2)CC1 (configuration not stated),inactive: 27.4%
5,CCOC(=O)N1CCC(Nc2ccc(F)cc2)CC1,inactive: -12.2%
6,COc1ccc(NC2CCN(CCc3ccccc3)CC2)c(OC)c1,inactive: 1.36%
7,O=C(NCC1(N2CCCCC2)CCCCC1)c1ccc(F)cc1,inactive: -0.7%
8,CCCCOc1ccc(C(=O)NCC2(N3CCOCC3)CCCCC2)cc1,inactive: 0.17%
9,O=P1(N(CCCl)CCCl)SCCCS1,inactive: -9.12%
10,CCCCn1nnnc1C(c1cc2ccccc2o1)N1CCC(n2c(=O)[nH]c3ccccc32)CC1 (configuration not stated),inactive: 8.2%
11,CCOc1ccc(C)cc1CN(CCCl)CCCl,inactive: 9.79%
12,O=C1CCN(Cc2ccccc2)CC1,inactive: -4.66%
13,CC(C)(C)n1nnnc1C(c1ccccc1)N1CCC(n2c(=O)[nH]c3ccccc32)CC1 (configuration not stated),inactive: -1.75%
14,CCCCn1nnnc1C(c1ccc(OC)cc1)N1CCC(n2c(=O)[nH]c3ccccc32)CC1 (configuration not stated),inactive: 13.4%
15,CCOC(=O)N1CCC(Nc2ccc(OC)cc2)CC1,inactive: -8.7%
16,COc1ccc(Cl)cc1C(=O)NCC1(N2CCOCC2)CCCCC1,inactive: 5.84%
17,O=c1[nH]c2ccccc2n1C1CCN(C(c2cc3ccccc3o2)c2nnnn2C2CCCCC2)CC1 (configuration not stated),inactive: 1.09%
18,O=C(OC1CN2CCC1CC2)C1c2ccccc2Oc2ccccc21 (configuration not stated),inactive: -18.1%
19,N#CC1(Nc2ccccc2)CCN(Cc2ccccc2)CC1,inactive: 5.43%
20,O=C(NCC1(N2CCCCC2)CCCCC1)c1ccc(Cl)s1,inactive: -5.39%
21,O=C(NCC1(N2CCOCC2)CCCCC1)c1cc2ccccc2o1,inactive: -17.3%
22,Cc1cc(C)cc(N(C(=O)c2ccccc2)C2CCN(C(=O)OC(C)(C)C)CC2)c1,inactive: 7.26%

row,Structure (SMILES),inhibition
1,O=c1[nH]c2ccccc2n1C1CCN(C(c2ccccc2OC(F)(F)F)c2nnnn2C2CCCCC2)CC1 (configuration not stated),inactive: 7.02%
2,O=C(NCC1(N2CCCCC2)CCCCC1)c1ccc(Cl)nc1,inactive: -1.41%
3,Cc1cccc(NC2(C#N)CCN(Cc3ccccc3)CC2)c1,inactive: 5.22%
4,CSc1ccccc1C(=O)NCC1(N2CCCCC2)CCCCC1,inactive: -24.2%
5,CCCCn1nnnc1C(c1cccs1)N1CCC(n2c(=O)[nH]c3ccccc32)CC1 (configuration not stated),inactive: 20%
6,CCCCn1nnnc1C(CC)N1CCC(n2c(=O)[nH]c3ccccc32)CC1 (configuration not stated),inactive: 13.8%
7,O=C(NCC1(N2CCCCC2)CCCCC1)c1cccs1,inactive: -31.2%
8,O=C(NCC1(N2CCCCC2)CCCCC1)c1ccc(=O)[nH]c1,inactive: -6.76%
9,CCC(c1nnnn1C1CCCC1)N1CCC(n2c(=O)[nH]c3ccccc32)CC1 (configuration not stated),inactive: 7.07%
10,COc1ccc(C(=O)NCC2(N3CCCCC3)CCCCC2)c(OC)c1OC,inactive: 4.46%
11,CC(C)(C)OC(=O)N1CCC(N(C(=O)c2ccccc2)c2ccc(F)cc2)CC1,inactive: 21.9%
12,COc1ccc(C(=O)NCC2(N3CCCCC3)CCCCC2)cc1,inactive: -0.08%
13,CCCOc1ccc(C(=O)NCC2(N(C)C)CCCCC2)cc1OC,inactive: -1.14%
14,Cc1ccc(C(=O)NCC2(N(C)C)CCCCC2)o1,inactive: -3.44%
15,COc1ccc(C(c2nnnn2C2CCCC2)N2CCC(n3c(=O)[nH]c4ccccc43)CC2)cc1 (configuration not stated),inactive: 14.9%
16,O=C(NCC1(N2CCCCC2)CCCCC1)c1cncc(Br)c1,inactive: -11.3%
17,CN1CCC(Nc2cccc(F)c2)CC1,inactive: 7.47%
18,CCCCn1nnnc1C(c1ccnc2ccccc12)N1CCC(n2c(=O)[nH]c3ccccc32)CC1 (configuration not stated),inactive: 11.6%
19,O=C(NCC1(N2CCOCC2)CCCCC1)c1cc(F)c(F)cc1Cl,inactive: 6.35%
20,CCC(c1nnnn1C(C)(C)C)N1CCC(n2c(=O)[nH]c3ccccc32)CC1 (configuration not stated),inactive: 6.6%
21,COc1cc(OC)c(C(=O)NCC2(N(C)C)CCCCC2)cc1OC,inactive: -35.3%
22,CN(C)c1cccc(C(=O)NCC2(N3CCCCC3)CCCCC2)c1,inactive: -18.1%

row,Structure (SMILES),inhibition
1,COc1ccc(CN(CCCl)CCCl)cc1Cl,inactive: -12.9%
2,CC(C)c1ccc(NC2CCN(C(=O)OC(C)(C)C)CC2)cc1,inactive: -104%
3,CCCCn1nnnc1C(c1ccccc1OC(F)(F)F)N1CCC(n2c(=O)[nH]c3ccccc32)CC1 (configuration not stated),inactive: 23.6%
4,CCCCn1nnnc1C(c1cccc2ccccc12)N1CCC(n2c(=O)[nH]c3ccccc32)CC1 (configuration not stated),inactive: 11.7%
5,COc1ccc(NC2CCN(C(=O)OC(C)(C)C)CC2)cc1,inactive: 0.82%
6,CC(C)c1ccc(C(=O)NCC2(N3CCOCC3)CCCCC2)cc1,inactive: -135%
7,CN1CCN(CCOC(=O)C(O)(c2ccccc2)c2ccccc2)CC1,inactive: 9.41%
8,O=C(NCC1(N2CCOCC2)CCCCC1)c1cc(=O)[nH]c2ccccc12,inactive: -0.54%
9,COc1cc(C(=O)NCC2(N3CCCCC3)CCCCC2)ccc1OC(F)F,inactive: 6.97%
10,O=C(NCC1(N2CCCCC2)CCCCC1)c1cccc(C(F)(F)F)c1,inactive: -10.5%
11,CSc1ccc(C(=O)NCC2(N3CCOCC3)CCCCC2)cc1,inactive: -10.9%
12,O=C(NCC1(N2CCCCC2)CCCCC1)c1cccc([N+](=O)[O-])c1,inactive: 11.1%
13,N#CC1(Nc2ccccc2)CCN(CCc2ccccc2)CC1,inactive: -3.28%
14,O=c1[nH]c2ccccc2n1C1CCN(C(c2ccccc2OC(F)(F)F)c2nnnn2C2CCCC2)CC1 (configuration not stated),inactive: 4.64%
15,CCN1CCC(Nc2ccc(Cl)cc2)CC1,inactive: -25.6%
16,O=C(NCC1(N2CCCCC2)CCCCC1)c1ccc(OC(F)F)cc1,inactive: -35.5%
17,CC(C)(C)n1nnnc1C(c1ccccc1OC(F)(F)F)N1CCC(n2c(=O)[nH]c3ccccc32)CC1 (configuration not stated),inactive: -20.4%
18,CC(C)(C)n1nnnc1C(c1cccc2ccccc12)N1CCC(n2c(=O)[nH]c3ccccc32)CC1 (configuration not stated),inactive: 20.3%
19,CCCN1CCC(Nc2cc(OC)cc(OC)c2)CC1,inactive: -12%
20,O=c1[nH]c2ccccc2n1C1CCN(C(c2ccccc2)c2nnnn2C2CCCC2)CC1 (configuration not stated),inactive: 9.69%
21,Cc1cc(N(CCCl)CCCl)ccc1C=O,inactive: 0.93%
22,c1ccc(CN2CCC(Nc3ccccc3)CC2)cc1,inactive: -44.1%

row,Structure (SMILES),inhibition
1,CN(C)C1(CNC(=O)c2cccc(C#N)c2)CCCCC1,inactive: 10.9%
2,CC(C)(C)OC(=O)N1CCC(N(C(=O)c2ccccc2)c2ccc(Cl)cc2)CC1,inactive: 0.53%
3,N#Cc1ccc(C(=O)NCC2(N3CCCCC3)CCCCC2)cc1,inactive: -26.9%
4,CCCCn1nnnc1C(c1cccc(OC)c1OC)N1CCC(n2c(=O)[nH]c3ccccc32)CC1 (configuration not stated),inactive: 11.1%
5,O=c1[nH]c2ccccc2n1C1CCN(C(c2cccs2)c2nnnn2C2CCCC2)CC1 (configuration not stated),inactive: 17%
6,O=C(OC1CN2CCC1CC2)C1c2ccccc2C=Cc2ccccc21 (configuration not stated),inactive: -2.72%
7,N/C(=N\O)c1c(N)no[n+]1[O-],inactive: -1.51%
8,COc1cccc(C(c2nnnn2C(C)(C)C)N2CCC(n3c(=O)[nH]c4ccccc43)CC2)c1OC (configuration not stated),inactive: -9.17%
9,CCOC(=O)N1CCC(Nc2ccc(C)cc2)CC1,inactive: -5.22%
10,O=c1[nH]c2ccccc2n1C1CCN(C(c2ccnc3ccccc23)c2nnnn2C2CCCC2)CC1 (configuration not stated),inactive: 11.4%
11,COc1ccc(C(=O)NCC2(N3CCOCC3)CCCCC2)cc1OC,inactive: 9.82%
12,O=c1[nH]c2ccccc2n1C1CCN(C(c2cccs2)c2nnnn2C2CCCCC2)CC1 (configuration not stated),inactive: 4.45%
13,O=C(NCC1(N2CCOCC2)CCCCC1)c1cc(Br)ccc1Cl,inactive: 2.95%
14,COc1cc(C(=O)NCC2(N3CCOCC3)CCCCC2)cc(OC)c1C,inactive: -5.82%
15,CCCCn1nnnc1C(c1ccccc1)N1CCC(n2c(=O)[nH]c3ccccc32)CC1 (configuration not stated),inactive: 16.4%
16,CN1CCC(Nc2ccc(Cl)cc2)CC1,inactive: -15.8%
17,CCC(CO)(C(=O)OC1CN2CCC1CC2)c1ccccc1 (configuration not stated),inactive: 6.96%
18,COc1cccc(C(=O)N(c2cc(C)cc(C)c2)C2CCN(C(=O)OC(C)(C)C)CC2)c1,inactive: -3.93%
19,COc1cccc(C(c2nnnn2C2CCCC2)N2CCC(n3c(=O)[nH]c4ccccc43)CC2)c1OC (configuration not stated),inactive: -38.2%
20,COc1cc(OC)cc(C(=O)NCC2(N3CCOCC3)CCCCC2)c1,inactive: -32.3%
21,CCCOc1ccc(C(=O)NCC2(N(C)C)CCCCC2)cc1,inactive: 13.2%
22,O=c1[nH]c2ccccc2n1C1CCN(C(c2cc3ccccc3o2)c2nnnn2C2CCCC2)CC1 (configuration not stated),inactive: 1.29%

row,Structure (SMILES),inhibition
1,O=C(O)C1(Nc2ccccc2)CCN(Cc2ccccc2)CC1,inactive: 6.05%
2,CC(C)(C)OC(=O)N1CCC(Nc2ccccc2)CC1,inactive: -3.47%
3,CN1CCC(Nc2ccc(F)c(Cl)c2)CC1,inactive: 3.08%
4,CCOc1ncccc1C(=O)NCC1(N2CCOCC2)CCCCC1,inactive: -2.78%
5,Cn1c(=O)[nH]cc(N(CCCl)CCCl)c1=O,inactive: -10.2%
6,CN(C)c1ccc(C(=O)NCC2(N3CCCCC3)CCCCC2)cc1,inactive: -49.5%
7,O=C(NCC1(N2CCCCC2)CCCCC1)c1ccco1,inactive: -2.98%
8,CC(C)(C)n1nnnc1C(c1ccnc2ccccc12)N1CCC(n2c(=O)[nH]c3ccccc32)CC1 (configuration not stated),inactive: -2.17%
9,COc1ccc(C(c2nnnn2C2CCCCC2)N2CCC(n3c(=O)[nH]c4ccccc43)CC2)cc1 (configuration not stated),inactive: -3.26%
10,CCN1CCC(Nc2cccc(F)c2)CC1,inactive: -8.34%
11,Cc1ccccc1NC1(C#N)CCN(Cc2ccccc2)CC1,inactive: -12.3%
12,Cc1ccc(NC2(C#N)CCN(Cc3ccccc3)CC2)cc1,inactive: 5.62%
13,Fc1ccccc1NC1CCN(Cc2ccccc2)CC1,inactive: -34.6%
14,Cc1ccc(C(=O)NCC2(N3CCCCC3)CCCCC2)o1,inactive: -6.29%
15,O=c1[nH]c2ccccc2n1C1CCN(C(c2ccnc3ccccc23)c2nnnn2C2CCCCC2)CC1 (configuration not stated),inactive: 10.1%
16,COc1cc(OC)cc(C(=O)NCC2(N3CCCCC3)CCCCC2)c1,inactive: 3.3%
17,CCC(c1nnnn1C1CCCCC1)N1CCC(n2c(=O)[nH]c3ccccc32)CC1 (configuration not stated),inactive: 1.87%
18,CC(=O)N(c1ccccc1)C1CCNCC1,inactive: 8.66%
19,COc1cccc(C(c2nnnn2C2CCCCC2)N2CCC(n3c(=O)[nH]c4ccccc43)CC2)c1OC (configuration not stated),inactive: 24.9%
